Consider 1 molecule from PMC3676450 (Journal of medicinal chemistry, 2013).

Structures are written as SMILES.

The test deals with oxotremorine-evoked [3H]DA release from rat striatal slices. The settings on record: 1 μM.

On to `CN1[C@@H]2C[C@@H](OC(=O)[C@H](CO)c3ccccc3)C[C@H]1[C@@H]1O[C@@H]12` [Compound 1, scopolamine], for which the “inhibition of oxotremorine-mediated [3H]DA release (in words)” value is reported as “completely inhibits”.
